Test system: P815 mastocytoma target cells
Assay: Macrophage-mediated cytotoxicity ([3H]thymidine release) after treating thioglycolate-elicited macrophages
Procedure: Macrophage-mediated cytotoxicity: Cytotoxicity was determined using a [3H] thymidine release assay. Thioglycolate-elicited macrophages were plated in 96-well flat-bottom tissue culture plates (Costar, Cambridge, Mass.) at 4×10^5 and 1×10^4 macrophage per well. […] After 24 hours, the plates were washed three times and [3H] thymidine labelled P815 tumor target cells (1×10^4) were added to each well. The total assay volume was 250 μl in DMEM with 10% FCS and the plates were incubated an additional 24 hours. After incubation, the microplates were centrifuged for 2 minutes at 250×g and a 125 μl aliquot of supernatant was removed and counted by liquid […]. Total incorporation of radioactivity was determined by adding 1×10^4 cells to 2 ml of Beckman Redissolve scintillation cocktail.
The percent specific release was calculated. [formula]
All samples were plated in triplicate and the data presented as the mean ±S.D. of triplicates.

Row | Substance | effect of addition on the cytotoxicity activity (10 ng lipopolysaccharide added, data not shown) | Percent Cytotoxicity (effector to target cell ratio 1:1, same amounts per well) [%] | Percent Cytotoxicity (effector to target cell ratio 5:1, same amounts per well) [%] | Percent Cytotoxicity (effector to target cell ratio 10:1, same amounts per well) [%] | Percent Cytotoxicity (effector to target cell ratio 20:1, same amounts per well) [%] | Percent Cytotoxicity (effector to target cell ratio 40:1, per well: complex 18.0 ug protein containing 3.6 ug MTP-PE, free MTP-PE 3.6 ug, acetyl-LDL 18.0 ug protein) [%]
1 | lipopolysaccharide | no effect | – | – | – | – | –
2 | muramyl tripeptide phosphatidylethanolamine [MTP-PE] | – | 3 ± 4 | 6 ± 4 | 8.6 ± 4 | 4.3 ± 1.2 | 7.5 ± 7
